Target: MC4R (Homo sapiens, UniProt P32245)
Assay: Receptor binding assay (IC50 on the MC4R)

Amino acid sequences for entries named in this document (tags omitted).
UniProt P32245, whole entry: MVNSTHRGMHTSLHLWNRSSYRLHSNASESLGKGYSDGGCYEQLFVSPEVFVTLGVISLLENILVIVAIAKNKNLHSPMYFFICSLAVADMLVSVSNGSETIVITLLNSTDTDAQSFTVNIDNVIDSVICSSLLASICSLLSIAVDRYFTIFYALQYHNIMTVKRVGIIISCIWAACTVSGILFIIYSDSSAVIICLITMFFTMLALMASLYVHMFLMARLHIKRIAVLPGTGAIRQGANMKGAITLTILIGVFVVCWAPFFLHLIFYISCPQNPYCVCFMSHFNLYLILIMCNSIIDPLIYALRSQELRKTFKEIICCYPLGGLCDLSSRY

For `N=C(N)NCCC[C@@H]1NC(=O)[C@@H](Cc2ccccc2)NC(=O)[C@H](Cc2ccccc2)NC(=O)c2ccc(cc2)C(=O)NCCN(CC(N)=O)C(=O)[C@H](Cc2c[nH]c3ccccc23)NC1=O`, which IC50 is on record?
The IC50 was 100 nM.
